Patent US9895407B2, “Disinfecting formulations and uses thereof” (Sunny Wipes Pty Ltd, priority 2011, dated 2018)

Test system: hand microflora
Assay: Surgical handrub test, EN 12791:2005
Type: in vivo, human
Conditions: 5 volunteers, two 4.6 ml aliquots, 60 seconds total exposure, left hand

CCCO [60% propan-1-ol, propan-1-ol]
reduction of hand microflora, immediately: 1.61 Logs
